Assay results taken from patent publication US20220363718A1 (Bicycle, published 2022).

Chains of the proteins cited; added tags and fusions are not shown. A line that says so, or that is headed by a name, gives the form on record, which may keep a tag or linker.
Biotinylated human TSLP, one chain, as listed by the source limits assumed: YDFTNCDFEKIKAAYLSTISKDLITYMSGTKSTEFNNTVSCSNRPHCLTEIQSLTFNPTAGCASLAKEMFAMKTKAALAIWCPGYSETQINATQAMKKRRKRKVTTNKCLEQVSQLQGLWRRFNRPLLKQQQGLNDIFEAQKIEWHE

How the values were obtained:
Biotinylated human TSLP = target: T1, Biotinylated human TSLP (human, biotinylated); assay: SPR, biotinylated hTSLP on streptavidin chip
T1 construct: also called hTSLP; thymic stromal lymphopoietin

[1] = target: T2, Biotinylated human TSLP (hTSLP(29-159)-Avi) (human, biotinylated (C-terminal Avi-tag)); assay: SPR, biotinylated hTSLP on streptavidin chip, peptide injected
T2 construct: also called thymic stromal lymphopoietin

Binder | Kd (Biotinylated human TSLP) [nM] | Kd [1] [nM]
CQWLEDCWRGWC (N-term acetyl; 3 Cys on TATA) [Example 140] | 550 | 
YGACVDLDPWTCEQWWLCA (3 Cys on TATA) [Example 166] | 120 | 
KDNRVDCRDLDPWTCSSWWLCA (3 Cys on TATA) [Example 172] | 140 | 
ACRDLDPWTCSSWWLCANV (3 Cys on TATA) [Example 186] | 66 | 
EVDTYPCRDLDPWTCSSWWLCA (3 Cys on TATA) [Example 192] | 84 | 
ACDWQWEYDCWLSCDPN (3 Cys cyclised with TATA) [Example 205] |  | 150
ACDWNWSYDCWLPCANT (3 Cys cyclised with TATA) [Example 207] |  | 140
GNIKKSCDWHWEYDCWLSCA (3 Cys cyclised with TATA) [Example 211] |  | 140
ACDWHWEYDCWLSCYDNEMSA (3 Cys cyclised with TATA) [Example 213] |  | 120
SEAQETCDWHWEYDCWLSC (3 Cys cyclised with TATA) [Example 214] |  | 71
CDWHWEYDCWLSC (N-terminal group R^7 (shown only as drawing CHEM-US-00008); 3 Cys cyclised with TATA) [Example 219] |  | 550
ACDWHWEYDCWLSCEPETGQA (3 Cys cyclised with TATA) [Example 221] |  | 89
CDWHWEYDCWLSCAPDHLP (3 Cys cyclised with TATA) [Example 224] |  | 66
ERNCIWDWKYDCWLGCA (3 Cys cyclised with TATA) [Example 225] |  | 71
CDWHWEYDCWLSCDPSSKQ (3 Cys cyclised with TATA) [Example 226] |  | 76
DDEIMQCQWLEDCWRGFCA (3 Cys on TATA) [Example 64] | 69 | 
SPTCLWLDDCWRGFCA (3 Cys on TATA) [Example 85] | 120 | 
DPPKPRCQWLEDCWRGFCA (3 Cys on TATA) [Example 87] | 120 | 
DNHCHWLDDCWRGFCA (3 Cys on TATA) [Example 97] | 150 | 
HPNCDWLDDCWRGFCA (3 Cys on TATA) [Example 98] | 150 | 
